Structures are written as SMILES. This is a selection; strong and weak results do not stand in their true shares. The source made the active and inactive calls. Rule as the data show it: active = inhibition above about 80%; inactive = the rest.

By UniProt entry, the sequences of proteins in these tests, tags left out.
UniProt P34913, whole entry: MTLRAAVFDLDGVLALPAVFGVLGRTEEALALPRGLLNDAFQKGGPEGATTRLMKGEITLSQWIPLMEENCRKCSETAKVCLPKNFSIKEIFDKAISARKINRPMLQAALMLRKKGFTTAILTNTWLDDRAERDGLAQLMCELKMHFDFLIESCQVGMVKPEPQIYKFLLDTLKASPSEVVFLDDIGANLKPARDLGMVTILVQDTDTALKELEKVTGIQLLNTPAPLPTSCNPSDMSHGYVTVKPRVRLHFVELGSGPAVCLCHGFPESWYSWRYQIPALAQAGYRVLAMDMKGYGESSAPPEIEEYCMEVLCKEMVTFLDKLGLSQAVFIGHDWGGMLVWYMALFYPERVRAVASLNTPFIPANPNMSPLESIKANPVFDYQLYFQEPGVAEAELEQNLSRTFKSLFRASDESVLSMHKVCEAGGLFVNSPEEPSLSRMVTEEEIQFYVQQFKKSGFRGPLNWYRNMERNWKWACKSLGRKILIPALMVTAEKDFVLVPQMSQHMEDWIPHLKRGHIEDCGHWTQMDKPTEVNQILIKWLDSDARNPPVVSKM

In this experiment the target is Bifunctional epoxide hydrolase 2 (Homo sapiens) (UniProt P34913). Description: soluble epoxide hydrolase inhibitors, primary screen, biochemical, human sEH (AID 707). The settings on record: recombinant human sEH enzymatic activity assay; at 2 µM; active compounds read high.
As for `Cc1cc(C)cc(OP(C)(=O)Nc2ccc(C)cc2C)c1` (centres undefined), the inhibition (usually the drop in the measured response relative to a control, in per cent) was inactive: 35.6%. With `Cc1cc(C)cc(OP(C)(=O)Nc2ccccn2)c1` (centres undefined) the figure was inactive: 10.5%; with `Cc1ccc(C)c(NP(C)(=O)Oc2ccccc2)c1` (centres undefined), inactive: -27.8%; with `Cc1nc2ccc3ccccc3c2s1.O=[N+]([O-])c1cc([N+](=O)[O-])c(O)c([N+](=O)[O-])c1`, inactive: 9.5%. The figure for `COc1ccccc1OP(C)(=O)Nc1c(C)cccc1C` (centres undefined) is inactive: 8.6%; for `CP(=S)(Nn1cnnc1)Oc1ccccc1` (centres undefined) it is inactive: -1%; for `CP(=O)(NC(=O)Nc1ccccc1)Oc1ccccc1` (centres undefined) it is inactive: -5.4%. The figure for `CP(=O)(Nc1ccccn1)Oc1ccc(Cl)cc1` (centres undefined) is inactive: 0.9%; for `COc1ccc(OP(C)(=O)Nc2cccc(F)c2)cc1` (centres undefined) it is inactive: -0.3%; for `COc1ccccc1OP(C)(=O)Nc1ccc(C)c(C)c1` (centres undefined) it is inactive: -5.4%. For the compound `Cc1nc2ccc3ccccc3c2o1.O=[N+]([O-])c1cc([N+](=O)[O-])c(O)c([N+](=O)[O-])c1`, the inhibition is inactive: -6.6%. On to `CN(C)CCOC(=O)C(O)(c1ccccc1)C1CCCC1` (centres undefined), for which the inhibition was inactive: -20.4%.

As for `COc1ccc(OP(C)(=O)Nc2ccccn2)cc1` (centres undefined), the inhibition is inactive: -5.2%.

`Cc1c(NP(C)(=O)Oc2ccc(C(C)C)cc2)c(=O)n(-c2ccccc2)n1C` (centres undefined): the inhibition is inactive: 10%.

Turning to `CCc1ccc(OP(C)(=O)O)cc1`, the inhibition is inactive: 5.3%. Consider `CP(=O)(Nc1ccccn1)Oc1ccccc1` (centres undefined), for which the inhibition was inactive: 5.5%. `CCN(CC)CC(O)COC(=O)C(O)(c1ccccc1)C1CCCCC1` (centres undefined): the inhibition was inactive: -14.2%.

In the case of `CP(=O)(Oc1ccccc1)N1CCOC1=O` (centres undefined), the inhibition is inactive: -5.5%. The figure for `COc1ccccc1OP(C)(=O)Nc1c(C)n(C)n(-c2ccccc2)c1=O` (centres undefined) is inactive: 3.4%; for `CP(=O)(Nc1ccc(Cl)cc1)Oc1ccc(F)cc1` (centres undefined) it is inactive: 7.3%; for `CC(C)(C)c1ccc(OP(C)(=O)O)cc1` it is inactive: 5%. Consider `CP(=O)(OC12CC3CC(CC(C3)C1)C2)OC12CC3CC(CC(C3)C1)C2`, for which the inhibition is inactive: -14.1%. The figure for `COc1ccc(OP(C)(=O)Nc2cccc(Br)c2)cc1` (centres undefined) is inactive: 4.9%; for `CN(C)CCOC(=O)C(O)(c1ccccc1)C1CCCCC1` (centres undefined) it is inactive: 15.4%. On to `CCOP(C)(=S)SCC(=O)NC(C)(CC)C(=O)O` (centres undefined), for which the inhibition is inactive: -1.4%.

With `CP(=O)(Nc1ccc2c(c1)OCCO2)Oc1ccccc1` (centres undefined), the inhibition is inactive: 1.1%.

Take `CP(=O)(Nc1ccccc1F)Oc1ccccc1` (centres undefined): the inhibition was inactive: 0.2%.

In the case of `CCN(CC)CCCOC(=O)C(O)(c1ccccc1)C1CCCCC1` (centres undefined), the inhibition is inactive: 4%.

Consider `CP(=O)(Nc1ccccc1)Oc1ccc(F)cc1` (centres undefined), for which the inhibition is inactive: -11.2%.

The values above are taken from PubChem BioAssay AID707 (Columbia University Molecular Screening Center, 2007).
